The values that follow come from US8530525B2 (priority 2009, dated 2013).

“And” between values parts separate entries of the source, which are not always exact repeats. Identical values can stand only once.

This series concerns mice. Nature of the series: Minimal neurotoxicity, Rotarod test in mice (ASP, NINDS). Type of series: in vivo.

With “(1S,2E,4S,6R,7E,11E)-cembra-2,7,11-triene-4,6-diol”, where the note is “i.p.”, the “Toxicity in mice compared with 4R cembranoid” value is “somewhat more toxic than 4R cembranoid”. Further, the “Rotarod toxicity, number of animals failing the test over the number tested” value (“Rotarod toxicity … over the number tested” for short) (i.p. 30 mg/kg, 0.5 h after injection) is 0/4; the “Rotarod toxicity … over the number tested” value (i.p. 30 mg/kg, 4.0 h after injection) is 0/2; the “Rotarod toxicity … over the number tested” value (i.p. 100 mg/kg, 0.5 h after injection, listed as 4S, 100 mg/kg) is reported as 1/8; the “Rotarod toxicity … over the number tested” value (i.p. 100 mg/kg, 4.0 h after injection) was 0/4; the “Rotarod toxicity … over the number tested” value (i.p. 300 mg/kg, 0.5 h after injection, listed as 4S, 300 mg/kg) was 3 of 4 and 3/4; the “Rotarod toxicity … over the number tested” value (i.p. 300 mg/kg, 4.0 h after injection) is on record as 1/2.
